Tested on: NUGC3 tumors
Assay: Micro-PET imaging in nude mice bearing NUGC3 tumors
Parameters: species or system BALB/c nude mice
Conditions: mouse, in vivo

## OC[C@H]1OC(O)[C@H](F)[C@@H](O)[C@@H]1O (some centres unmarked) [^18F-FDG, ^18F-fluorodeoxyglucose]
  Tumor SUV: 0.54
  Tumor-to-muscle ratio: 8.28
